Laboratory results reported in US6689749B1, “Neuropeptides originating in scorpion” (Suntory Limited, priority 1996, dated 2004).
Read-outs that look alike come from different tables or passages of the source.

Chains of the proteins cited; added tags and fusions are not shown.
UniProt P15384, whole entry: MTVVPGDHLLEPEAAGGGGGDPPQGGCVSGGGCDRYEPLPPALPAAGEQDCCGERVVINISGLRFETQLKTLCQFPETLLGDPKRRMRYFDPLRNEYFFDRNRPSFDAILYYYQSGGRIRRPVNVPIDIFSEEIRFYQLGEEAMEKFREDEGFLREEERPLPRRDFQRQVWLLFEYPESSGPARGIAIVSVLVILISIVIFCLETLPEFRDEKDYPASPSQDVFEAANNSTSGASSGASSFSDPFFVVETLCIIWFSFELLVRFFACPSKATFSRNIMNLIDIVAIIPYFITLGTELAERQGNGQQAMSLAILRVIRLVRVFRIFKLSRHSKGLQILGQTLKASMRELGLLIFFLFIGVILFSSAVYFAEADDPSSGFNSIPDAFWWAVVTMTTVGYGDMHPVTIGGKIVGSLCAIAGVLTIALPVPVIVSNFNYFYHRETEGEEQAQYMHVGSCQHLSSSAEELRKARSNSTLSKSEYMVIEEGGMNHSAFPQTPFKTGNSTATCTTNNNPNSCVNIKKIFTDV
UniProt P10499, whole entry: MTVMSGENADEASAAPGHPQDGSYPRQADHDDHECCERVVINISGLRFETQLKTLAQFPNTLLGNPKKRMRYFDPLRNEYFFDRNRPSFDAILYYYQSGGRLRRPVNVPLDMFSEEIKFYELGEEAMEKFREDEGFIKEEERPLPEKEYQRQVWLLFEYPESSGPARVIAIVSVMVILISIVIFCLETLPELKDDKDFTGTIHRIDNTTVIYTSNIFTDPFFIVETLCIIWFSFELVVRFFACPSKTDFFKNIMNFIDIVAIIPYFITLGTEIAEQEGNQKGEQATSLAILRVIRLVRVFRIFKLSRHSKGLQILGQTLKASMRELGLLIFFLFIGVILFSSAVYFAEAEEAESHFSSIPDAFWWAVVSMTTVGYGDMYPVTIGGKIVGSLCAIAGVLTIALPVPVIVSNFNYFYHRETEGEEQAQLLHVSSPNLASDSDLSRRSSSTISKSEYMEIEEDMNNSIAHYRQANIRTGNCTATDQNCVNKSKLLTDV
UniProt P17659, whole entry: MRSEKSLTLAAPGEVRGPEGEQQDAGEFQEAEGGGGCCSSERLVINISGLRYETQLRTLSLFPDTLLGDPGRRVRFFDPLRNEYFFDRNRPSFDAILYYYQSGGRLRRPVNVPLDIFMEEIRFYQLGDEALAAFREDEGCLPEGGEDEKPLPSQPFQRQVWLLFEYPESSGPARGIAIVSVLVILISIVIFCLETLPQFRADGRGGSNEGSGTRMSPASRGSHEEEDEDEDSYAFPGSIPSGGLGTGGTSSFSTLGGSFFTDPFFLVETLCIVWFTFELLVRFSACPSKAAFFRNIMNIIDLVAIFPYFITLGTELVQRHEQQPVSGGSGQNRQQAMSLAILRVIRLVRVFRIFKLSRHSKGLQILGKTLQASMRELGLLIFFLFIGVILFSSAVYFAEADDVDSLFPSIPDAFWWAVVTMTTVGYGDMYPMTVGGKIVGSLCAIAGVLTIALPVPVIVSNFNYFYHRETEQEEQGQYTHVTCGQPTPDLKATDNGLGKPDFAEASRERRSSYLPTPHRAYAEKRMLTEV

Legend:
Format in all cases: cell-based
[1] = target: T1, rat brain voltage-gated K+ channel, Kv1.3 (Rattus norvegicus, UniProt P15384); test: Assay of K+ channel inhibition: two-electrode voltage clamp of Kv1.3 expressed in Xenopus oocytes; details: for IC50: rat Kv1.3 in Xenopus oocytes, about 22° C.
T1 construct: expressed in transfected cells; host or cells: Xenopus oocytes (cRNA injection; pAS18 vector, SP6 transcription; clone from Prof; O. Pongs)
Description: (§1) Assay on inhibitory activity of the peptides on K^+ channels was performed in the following manner. The gene of the rat brain voltage-gated K^+ channel, Kv1.3 (Stuhmer et al., EMBO J., 8, vol. 11, pp. 3235-3244, 1988), which was graciously contributed by Prof. O. Pongs (Institute für Neurale Signalverarbeitung, Hamburg, Germany) was inserted into pAS18 vector according to a conventional technique. This vector was treated with EcoRI and then the resultant clone was transcribed in vitro with SP6 RNA polymerase using a transcription kit (Stratagene Inc., USA). The cRNA obtained was injected into Xenopus oocytes 16-72 hr prior to electrophysiological experiments.
(§2) The oocytes which had been expressed the Kv1.3 gene were added to a 100 μl-chamber filled with an ND96 solution (0.3 mM CaCl2, 1 mM MgCl2, 2 mM KCl and 96 mM NaCl in 5 mM Hepes buffer, pH 7.6) supplemented with 50 mg/ml of bovine serum albumin (BSA), and the ND96 solution was continuously perfused through reservoirs at a flow rate of 4 ml/min. The sample to be tested was separately dissolved to an ND96 solution and then added to the chamber by perfusion through a reservoir. The switching from one reservoir to another for each experiment was performed by means of Teflon valves. All measurements were made at room temperature (about 22° C.).
The oocytes were impaled by two microelectrodes filled with 3M KCl (internal resistance: 0.5-2 MΩ) and voltage-clamped using Axoclamp-2 two electrode voltage-clamp amplifier (Axon Instruments, Inc.) in a mode where the voltage of the chamber was clamped at 0V. Currents were low-pass filtered at 1 kHz using a 8 pole-Bessel filter (CyberAmp, Axon Instruments Inc.; −3dB), sampled and digitized at 10 kHz using Digidate 1200 Interface (Axon Instruments Inc.), and then saved the data to a photomagnetic disk for subsequent off-line analysis. Programming and recording of the potential and analysis of the saved data were performed by running Pclamp software (Axon Instruments Inc.) in a Compaq PC computer. The measurement was conducted with a holding potential of −80 mV and a holding current of not more than −40 nA.
Inhibitory activity of HsTX1 of the present invention on Kv1.3 channels was examined by measuring the concentration-dependent inhibition of the voltage-gated outward current on the voltage-gated K^+ channels expressed in Xenopus oocyte system. […] Transient perfusion with 100 pM of HsTX1 followed by perfusion without any peptide like the control caused over 85% recovery of K^+ current over time.

[2] = target: T2, Kv1.1 (subtype of rat brain voltage-gated K+ channel) (Rattus norvegicus, UniProt P10499); test: Activity on other voltage-gated K+ channels: Kv1.1 expressed in Xenopus oocytes
T2 construct: expressed in transfected cells; host or cells: Xenopus oocytes
Description: as §1
as §2, with “C.). […]” for “C.).”

[3] = target: T3, Kv1.6 (subtype of rat brain voltage-gated K+ channel) (Rattus norvegicus, UniProt P17659); test: Activity on other voltage-gated K+ channels: Kv1.6 expressed in Xenopus oocytes
T3 construct: expressed in transfected cells; host or cells: Xenopus oocytes
Description: as §1
as §2, with “C.). […]” for “C.).”

[4] = system: IL-2 production by human peripheral blood T cells; test: IL-2 production by human peripheral blood T cells stimulated with PMA and ionomycin (IL-2 ELISA); details: for inhibition rate against IL-2 production: 20 hr
Description: Inhibitory activity of HsTX1 on IL-2 production by activated T cells was examined in the following manner. Mononuclear leukocytes were isolated from heparinized peripheral blood from a normal donor by a centrifugation technique with a mono-poly resolving medium (Dainippon Pharmaceuticals Co., Ltd.), and then applied to a nylon wool column. The column was incubated at 37° C. for 30 min and then non-adherent cells were isolated therefrom. The purified T-cells obtained were suspended in RPMI 1640 medium supplemented with 10% inactivated fetal calf serum, 100 U/ml of penicillin and 100 μg/ml of streptomycin. This suspension was plated onto a 96-well flat-bottom plate in a final concentration of 1×1 ^6 cells/ml, 1 ng/ml of phorbol myristate acetate (PMA) and 250 ng/ml of ionomycin were further added thereto as stimulators, and the plate was cultivated in a 5% CO2 gas incubator at 37° C.
At the time of starting of cultivation, HsTX1 was added to each well in concentrations of 0.1, 1, 10 and 100 nM, respectively, to the final volume for each well of 200 μl. After 20 hr, the culture supernatant was collected and then determined for IL-2 concentration therein using a human IL-2 ELISA kit (Endogen).

Row | Compound | IC50 ([1]; read-out: 50% blocking/inhibition concentration (IC50) on Kv1.3 channels) [pM] | activity on Kv1.1 relative to Kv1.3 ([2]; IC50 comparison with Kv1.3) | IC50 ([2]; rat Kv1.1 in Xenopus oocytes) [pM] | activity on Kv1.6 relative to Kv1.3 ([3]; IC50 comparison with Kv1.3) | IC50 ([3]; rat Kv1.6 in Xenopus oocytes) [pM] | inhibition of voltage-gated outward current ([1]; 10 pM peptide, all voltages tested, vs control without peptide) [%] | IC50 ([1]; 50% blocking/inhibition concentration (IC50) on Kv1.3 channels) [pM] | potency on K+ channels relative to Pi1 (times stronger) ([1]; compared with scorpion toxin Pi1) | inhibition rate against IL-2 production ([4]; 0.1 nM) [%] | inhibition rate against IL-2 production ([4]; 1 nM) [%] | inhibition rate against IL-2 production ([4]; 10 nM) [%] | inhibition rate against IL-2 production ([4]; 100 nM) [%] | inhibition of IL-2 production, significance ([4]; 0.1, 1, 10 and 100 nM, Dunnett's test)
1 | CSCC[C@@H]1NC(=O)[C@@H]2CSSC[C@H](NC(=O)[C@H](CO)NC(=O)[C@H](C)N)C(=O)N[C@@H](CCCNC(=N)N)C(=O)N[C@@H]([C@@H](C)O)C(=O)N3CCC[C@H]3C(=O)N[C@@H](CCCCN)C(=O)N[C@@H](CC(=O)O)C(=O)N[C@H]3CSSC[C@H](NC(=O)[C@H](CCCCN)NC(=O)[C@H](CCCNC(=N)N)NC(=O)[C@H](CC(N)=O)NC1=O)C(=O)N[C@@H](CCCCN)C(=O)N[C@H]1CSSC[C@H](NC(=O)[C@@H]4CCCN4C(=O)[C@H](CC(=O)O)NC(=O)[C@H](C)NC3=O)C(=O)N[C@@H](CCCNC(=N)N)C(=O)N[C@@H](CCCCN)C(=O)N[C@@H](CCC(=O)O)C(=O)N[C@@H]([C@@H](C)O)C(=O)NCC(=O)N[C@@H](CSSC[C@@H](C(N)=O)NC(=O)[C@H](CCCNC(=N)N)NC(=O)[C@H](CC(N)=O)NC1=O)C(=O)N1CCC[C@H]1C(=O)N[C@@H](Cc1ccc(O)cc1)C(=O)NCC(=O)N[C@@H](CCCCN)C(=O)N2 [synthetic HsTX1] | ~13 | about one-thirty | ~300 | about one-thirty | ~300 | – | – | – | – | – | – | – | –
2 | CSCC[C@@H]1NC(=O)[C@@H]2CSSC[C@H](NC(=O)[C@H](CO)NC(=O)[C@H](C)N)C(=O)N[C@@H](CCCNC(=N)N)C(=O)N[C@@H]([C@@H](C)O)C(=O)N3CCC[C@H]3C(=O)N[C@@H](CCCCN)C(=O)N[C@@H](CC(=O)O)C(=O)N[C@H]3CSSC[C@H](NC(=O)[C@H](CCCCN)NC(=O)[C@H](CCCNC(=N)N)NC(=O)[C@H](CC(N)=O)NC1=O)C(=O)N[C@@H](CCCCN)C(=O)N[C@H]1CSSC[C@H](NC(=O)[C@@H]4CCCN4C(=O)[C@H](CC(=O)O)NC(=O)[C@H](C)NC3=O)C(=O)N[C@@H](CCCNC(=N)N)C(=O)N[C@@H](CCCCN)C(=O)N[C@@H](CCC(=O)O)C(=O)N[C@@H]([C@@H](C)O)C(=O)NCC(=O)N[C@@H](CSSC[C@@H](C(N)=O)NC(=O)[C@H](CCCNC(=N)N)NC(=O)[C@H](CC(N)=O)NC1=O)C(=O)N1CCC[C@H]1C(=O)N[C@@H](Cc1ccc(O)cc1)C(=O)NCC(=O)N[C@@H](CCCCN)C(=O)N2 [HsTX1] | – | – | – | – | – | ~50 | 12 | about 800 times | 28.6 | 45.7 | 46.0 | 46.7 | significantly inhibited
